# Assay results published in BindingDB's records for doi:10.1016/s0028-3908(96)00054-8 (National Institute of Diabetes, Digestive and Kidney …, 1996).
# Amino acid sequences for entries named in this document (tags omitted).
# UniProt P28471, whole entry: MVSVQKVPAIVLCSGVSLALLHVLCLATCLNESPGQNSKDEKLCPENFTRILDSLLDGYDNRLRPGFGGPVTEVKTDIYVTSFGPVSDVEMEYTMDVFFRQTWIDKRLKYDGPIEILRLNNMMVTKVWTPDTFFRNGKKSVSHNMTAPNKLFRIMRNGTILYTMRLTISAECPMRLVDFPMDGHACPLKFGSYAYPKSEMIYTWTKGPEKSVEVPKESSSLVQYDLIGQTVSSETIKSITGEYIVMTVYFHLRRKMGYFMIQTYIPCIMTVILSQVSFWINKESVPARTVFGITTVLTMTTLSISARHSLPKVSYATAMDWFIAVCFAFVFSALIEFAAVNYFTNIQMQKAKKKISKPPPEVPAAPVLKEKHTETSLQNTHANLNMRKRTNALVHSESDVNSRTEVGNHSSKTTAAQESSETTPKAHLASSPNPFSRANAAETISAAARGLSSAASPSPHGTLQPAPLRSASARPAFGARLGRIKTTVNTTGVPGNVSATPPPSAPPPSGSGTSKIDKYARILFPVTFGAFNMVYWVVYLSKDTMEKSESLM
# pKi: −log10 of the molar value.
# Target: Gamma-aminobutyric acid receptor subunit alpha-4 (Rattus norvegicus, UniProt P28471)
smiles,measurement,value
CCOC(=O)c1ncn2c1CN(C)C(=O)c1cc(N=[N+]=[N-])ccc1-2 [RO-154513],pKi,8.47
